Consider four molecules from ChEMBL document CHEMBL1153940, “Anthranilic acid based CCK1 receptor antagonists: blocking the receptor with the same 'words' of the endogenous ligand” (Bioorg Med Chem, 2009).

For this experiment, the system named is Gastrin/cholecystokinin type B receptor (Cavia porcellus). Description: Displacement of [125I]BH-CCK8 from CCK2 receptor in Hartley guinea pig cerebral cortex at 10 uM. For orientation: Displacement assays read how much labelled ligand stays bound in the presence of the test substance.
With `O=C(O)CNC(=O)c1ccccc1NC(=O)c1cc2ccccc2[nH]1`, the Activity is less than 20%. Molecule `O=C(Nc1ccccc1C(=O)NC(Cc1c[nH]c2ccccc12)C(=O)O)c1cc2ccccc2[nH]1` (racemic) displayed an Activity of less than 20%.

Molecule `O=C(Nc1ccccc1C(=O)NC(Cc1ccc(O)cc1)C(=O)O)c1cc2ccccc2[nH]1` (racemic) returned an Activity of less than 20%.

The molecule `CC(C)CC(NC(=O)c1ccccc1NC(=O)c1cc2ccccc2[nH]1)C(=O)O` (racemic) returned an Activity of less than 20%.
